Experimental data reported in PubChem BioAssay AID651596 (Sanford-Burnham Center for Chemical Genomics, 2012).
The entries are a selection whose mix differs from that of the whole data set.

Experiment: caspase-8 TRAIL sensitization, hit retest, confirmation, cell-based, NB7+caspase-8, with/without TRAIL, luminescence panel (AID 651596)
Conditions: NB7 neuroblastoma + caspase-8, without TRAIL, luminescence viability, mean of runs, at 10 µM

Compound | activity [%]
CCCCn1nnnc1C(c1cc2ccccc2o1)N1CCC(n2c(=O)[nH]c3ccccc32)CC1 (stereo unspecified) | 32.4
